Ab-14 light chain CDR variants: yeast mating affinities

Binding partner: SARS-CoV-2 spike HR2 peptide, sequence PDVDLGDISGINAS.

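The starting antibody came from a phage panning campaign against this peptide. In library AAYL50, one, two or three CDR residues were substituted; doubles and triples were drawn at random. The scFvs were displayed on barcoded MATa yeast, the peptide on MATalpha yeast. Pairs that bind mate more often; barcode pairs of the diploids are counted by sequencing. A regression on co-assayed BCL2-family reference pairs converts the normalised counts of each replicate to an apparent Kd. Each pool was mated in three replicate cultures.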

Parent scFv Ab-14: VH joined to VL by the linker GGGGSGGGGSGGGGS. Changes lie in the light chain CDRs alone.
VH: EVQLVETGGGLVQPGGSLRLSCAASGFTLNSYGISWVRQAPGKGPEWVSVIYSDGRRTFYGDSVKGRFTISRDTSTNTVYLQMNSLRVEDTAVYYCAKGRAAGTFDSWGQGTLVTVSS
VL: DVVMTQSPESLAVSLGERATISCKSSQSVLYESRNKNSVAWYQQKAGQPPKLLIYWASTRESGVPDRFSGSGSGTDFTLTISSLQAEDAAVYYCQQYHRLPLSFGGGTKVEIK

Positions count from residue 1 of the parent VL; S28M puts M in place of S.
Numbers give log10(Kd / nM), so 0 is 1 nM and 3 is 1 µM. Smaller is tighter.
"nd" marks a missing value. The strain was present, yet no cells mated with the target were sequenced in that replicate, which points to weak or no binding.
Parent in this assay: reference entry 0.65, copy in this library 1.68.
Three control strains display no target. For library AAYL50, 18% of the pairings with them gave a signal, with a median of 4.19 and one signal in twenty below 2.99, so weak values seen in few replicates may be background. Also given: how often the same scFv was detected with the empty control strains, with their mean in brackets.

| changes | log10 Kd (nM) by replicate | signal with controls |
|---|---|---|
| S28M V29I S103W | 1.43 1.28 1.35 | 2/9 (4.85) |
| R60E S62D | nd nd nd | 5/9 (4.49) |
| K24A S28A S62Q | 0.63 0.96 0.87 | 0/9 |
| N37Q V39T H98N | nd nd nd | 3/9 (4.18) |
| S58W R99S P101D | 3.74 nd 4.02 | 1/9 (3.68) |
| S26C S58R L100C | nd nd nd | 1/9 (2.95) |
| L30W R99A L100I | nd nd nd | 1/9 (3.94) |
| S33P R34E V39T | nd nd 6.33 | 5/9 (4.50) |
| E32Q E61H L100A | nd nd nd | 0/9 |
| S28D A57F H98N | nd nd 5.53 | 0/9 |
| S25E A40D L100F | 5.37 4.79 nd | 5/9 (4.40) |
| S28W R60E S103C | nd nd nd | 0/9 |
| Q27I L30G Q95R | nd nd nd | 0/9 |
| S25D E32Y Y97M | nd nd 4.44 | 0/9 |
| Y31N S33Q Y97M | 2.77 2.64 2.86 | 0/9 |
| W56A T59D Q96A | 0.39 0.65 0.65 | 3/9 (4.85) |
| S38I S58C S103V | nd 5.50 5.41 | 4/9 (4.88) |
| V29R S103D | nd nd nd | 0/9 |
| K24G Q27K K36N | 2.24 1.84 nd | 1/9 (3.78) |
| N37E S58C P101N | 3.98 3.66 4.40 | 4/9 (3.47) |
| R34E K36I N37P | 1.93 1.51 1.10 | 0/9 |
| S26Q R99S L102N | nd nd nd | 1/9 (3.76) |
| A57L Q95W R99G | nd nd nd | 3/9 (5.12) |
| Q27A S62C H98M | 1.10 1.31 1.43 | 1/9 (3.98) |
| S33I N37R Q95G | nd 3.09 nd | 1/9 (3.77) |
| V39T A40I S62A | nd nd nd | 0/9 |
| Q27K V39Y W56K | 1.67 1.77 2.41 | 0/9 |
| L30P N37H L100G | 5.08 nd nd | 0/9 |
| S26D V29T | 1.09 1.05 1.41 | 3/9 (4.33) |
| Y31H S62T P101V | nd nd nd | 0/9 |
| V29F K36Q E61K | 3.35 nd 2.72 | 0/9 |
| S28C E32F L102D | nd nd nd | 2/9 (3.50) |
| V29Q N37M | nd nd nd | 0/9 |
| S26N S38R A40V | nd nd 6.23 | 0/9 |
| V29F Y31Q A57D | 2.84 2.49 3.16 | 1/9 (5.03) |
| K24Y Y31C T59C | 2.25 2.99 4.53 | 0/9 |
| K36N S38F T59E | 3.04 3.72 3.98 | 4/9 (4.61) |
| Q27L L30C E32W | 0.96 1.47 1.12 | 2/9 (2.97) |
| V29D H98D L100P | nd nd nd | 4/9 (3.80) |
| K24N E32A Q96V | 3.33 3.30 nd | 2/9 (3.78) |
| Y31T W56Y R99Q | 0.98 1.23 0.95 | 2/9 (4.21) |
| V29L S58F | nd nd 6.46 | 4/9 (4.75) |

From the AlphaSeq antibody data of Engelhart et al. 2022 (doi:10.1038/s41597-022-01779-4), copy in the FLAb collection.